# Measured affinities in a library of Ab-14 light chain variants

Data: MIT Lincoln Laboratory AlphaSeq set, Li et al. 2023, doi:10.1038/s41467-023-39022-2, as distributed in FLAb.

Target peptide (SARS-CoV-2 spike, HR2 region): PDVDLGDISGINAS

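The parent was found by panning a naive human phage display library on the peptide. This is the validation round: designs drawn from the data on random variants, tested in the same kind of assay. Their group label is 14L_En_Gibbs (En: ensemble of fine-tuned language models; Gibbs: Gibbs sampling). AlphaSeq pools MATa yeast showing the antibodies with MATalpha yeast showing the peptide. Pairs that bind mate more often; barcode pairs of the diploids are counted by sequencing. Scores were corrected for input abundance and mapped to Kd with protein pairs of known affinity run in the same pool. There are six technical replicates.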

Each scFv is VH, three GGGGS repeats, VL, as in the parent Ab-14, and differs from it in the CDRs of the light chain only.
VH: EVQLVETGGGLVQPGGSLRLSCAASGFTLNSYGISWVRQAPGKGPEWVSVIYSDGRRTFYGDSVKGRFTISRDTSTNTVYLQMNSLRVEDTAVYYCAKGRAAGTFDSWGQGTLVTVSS
VL: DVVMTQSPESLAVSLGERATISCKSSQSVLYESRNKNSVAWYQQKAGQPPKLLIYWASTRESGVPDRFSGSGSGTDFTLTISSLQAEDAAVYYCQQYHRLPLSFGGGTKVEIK

The parent's light chain CDRs are KSSQSVLYESRNKNSVA, WASTRES, QQYHRLPLS; each variant's own CDRs replace them letter for letter.
The read-out is the apparent dissociation constant on a log10 scale (nM): the lower, the stronger.
"nd" means that the variant was in the library but no mating with the target was seen in that replicate; the authors take this as a sign of poor binding, and no number exists.
Values of this round are not directly comparable with the first-round values of the same sequences.
Three control strains display no target. For all light chain designs, 4% of the pairings with them gave a signal, with a median of 2.64 and one signal in twenty below 1.59, so weak values seen in few replicates may be background. For each scFv, signals with the empty controls are counted beside the result, with their mean in brackets.
Of ten entries with the parent sequence, four were seen in most replicates (averages 0.34 to 2.37), three in one and three in none, so single entries are noisy.
The authors' rule: three or more of the six replicates give a measured affinity, fewer mean a poor binder.

CDR-L1 | CDR-L2 | CDR-L3 | log10 Kd (nM) by replicate | signal with controls
SLQTKYSTAQDRWSNIA | HADQREA | QQYFRLPIV | 0.83 / 0.60 / 0.89 / 0.57 / 0.48 / 0.85 | 0/18
TLMMDPTEQRDNKHAVA | DNNQRDR | QQYHRLPLS | nd / 2.15 / 2.45 / 1.45 / 1.28 / nd | 0/18
LIKGMVDGQYYWQNNIA | NSEERDR | QQYNHLPLS | 0.55 / 0.80 / 0.34 / 0.34 / 0.48 / 0.71 | 0/18
QLQFEDVQYGVNEQAIA | EENQRMQ | QQYFRLPLI | 1.09 / 1.02 / 0.75 / 0.55 / 1.05 / 1.33 | 1/18 (2.10)
MLWQQMEGFNLHKDAIA | NAKERTG | QQYGRLPLS | 1.29 / 1.37 / nd / 1.49 / 0.92 / 3.50 | 0/18
HLSDLLSYGKDLQAAVA | GVQTRMT | QQYARLPLF | 0.49 / 0.19 / -0.06 / 0.17 / 0.03 / 0.20 | 2/18 (3.15)
KLQNFSQEDNKMWNNIA | DMTMKHT | QQYNRLPLE | 0.39 / 0.12 / 0.15 / 0.01 / 0.72 / 0.76 | 1/18 (2.63)
HVEHAWLLSNATMNAVA | NGATLAD | QQYFRLPLA | 0.62 / 0.57 / 0.46 / 0.39 / 0.49 / 0.53 | 4/18 (3.38)
QIAMEMYHDLNDAQNVA | DAMTWIP | QQYSRLPLS | nd / nd / nd / nd / 3.46 / nd | 1/18 (3.06)
KLLSLSLHQTGKLNSVA | DAEITQT | QQYMSLPLM | 1.46 / nd / 1.33 / 2.54 / 0.99 / 2.70 | 0/18
SVTRYTDENGLKMQSIA | GAGNRMT | QQYHRLPLT | 1.03 / 0.48 / 0.39 / 1.49 / 0.55 / 0.46 | 0/18
KLDLENGHEGKKGQNIA | EASTAGD | QSYWRLPLY | 1.25 / 1.81 / 1.70 / 2.02 / 1.64 / 2.26 | 0/18
NLDKHDYEPRQMINSIA | DMQTLVA | QQYASLPLD | 1.27 / 1.13 / 0.75 / 0.95 / 1.21 / 0.96 | 2/18 (2.50)
KIEWSTFYYAQNDRSIA | EESRKER | QQYMMLPLS | nd / nd / nd / nd / 1.44 / nd | 1/18 (1.86)
HIQDARGGLSEQFNSVA | STEERSH | QQYHRLPLS | 0.70 / 1.06 / 1.12 / 1.22 / 0.67 / 1.04 | 1/18 (2.45)
MITEGQLGENKNSSNIA | SQNIKTA | QQYQRLPLT | 1.74 / nd / nd / nd / nd / 2.02 | 0/18
MIFYGQERDIAHESSIA | NDMEVSK | QQYYRLPLS | nd / nd / nd / nd / nd / nd | 0/18
QLDQAYRVGGLWKYSIA | HGSMRVQ | QCYVRLPLS | nd / nd / nd / nd / nd / nd | 0/18
VFSGQWDGVTTTNSAVA | NVDERML | QQYNRLPLM | 0.60 / 0.18 / 0.05 / 0.21 / 0.17 / 0.34 | 1/18 (2.62)
KLYYHEVGEVNGSNSIA | ETDQLTF | QQYSHLPLS | nd / nd / nd / 2.54 / nd / 4.73 | 1/18 (2.56)
SMQSDQIGGNQQTNSIA | GESVTDM | QHYERLPLS | nd / nd / nd / nd / nd / nd | 0/18
NLNDTPMEQQIHMDAIA | QEAIRNA | QQYARLPLS | 1.08 / 0.62 / 0.95 / 0.87 / 0.96 / 0.87 | 0/18
HMMMYEDMQQNIQCGVA | DATTRNT | QQYQRLPLS | 1.05 / 1.21 / 1.33 / 1.49 / 0.92 / 1.57 | 1/18 (2.35)
QISMLSLNDDSAHSNIA | AHVMLSS | QQYSHLPLS | nd / nd / nd / 0.54 / nd / nd | 0/18
RLNVFQNAITQQNNNIA | QAEQKVH | QQYMRLPLY | nd / nd / nd / nd / nd / nd | 0/18
KLDQKMDQFGQNGNNIA | HGEEFRI | QQYHSLPLS | nd / 2.58 / nd / nd / 4.17 / 2.65 | 2/18 (2.20)
RFSQTEQMGIRDYNSVA | NGSTYAT | QHYSRLPIS | 1.08 / 0.60 / 1.14 / 1.11 / 1.18 / 1.75 | 3/18 (3.18)
SLVQEKSVGDANMGNIA | AANQLSV | QQYNRLPLS | 2.12 / 2.73 / 1.58 / 2.09 / 0.99 / 1.96 | 0/18
KISINQSNYGGMRSAIA | NTNLARM | QQYYHLPLM | 0.89 / 0.96 / 0.85 / 0.93 / 1.01 / 0.90 | 3/18 (3.20)
KVQLGLERYNGDYSAVA | NETQKGD | QQYFQLPLG | 1.28 / 0.87 / 1.42 / 0.97 / 1.21 / 1.09 | 0/18
TLLMGPTEARKDKHNIA | DMSEREE | QQYHLLPLI | 0.47 / 1.04 / 0.75 / 0.11 / 0.63 / 0.93 | 0/18

Repeated from above, the 5 best binders with a signal in all replicates:

CDR-L1,CDR-L2,CDR-L3,log10 Kd (nM) by replicate,signal with controls
HLSDLLSYGKDLQAAVA,GVQTRMT,QQYARLPLF,0.49 / 0.19 / -0.06 / 0.17 / 0.03 / 0.20,2/18 (3.15)
VFSGQWDGVTTTNSAVA,NVDERML,QQYNRLPLM,0.60 / 0.18 / 0.05 / 0.21 / 0.17 / 0.34,1/18 (2.62)
KLQNFSQEDNKMWNNIA,DMTMKHT,QQYNRLPLE,0.39 / 0.12 / 0.15 / 0.01 / 0.72 / 0.76,1/18 (2.63)
HVEHAWLLSNATMNAVA,NGATLAD,QQYFRLPLA,0.62 / 0.57 / 0.46 / 0.39 / 0.49 / 0.53,4/18 (3.38)
LIKGMVDGQYYWQNNIA,NSEERDR,QQYNHLPLS,0.55 / 0.80 / 0.34 / 0.34 / 0.48 / 0.71,0/18